Binding of CDR-mutated scFvs to a peptide of the spike HR2 region

Data: MIT Lincoln Laboratory AlphaSeq set, Li et al. 2023, doi:10.1038/s41467-023-39022-2, as distributed in FLAb.

The target is the same throughout: PDVDLGDISGINAS, from the HR2 region of SARS-CoV-2 spike.

Parent scFv Ab-14: VH joined to VL by a (GGGGS)3 linker. Changes lie in the heavy chain CDRs alone.
VH: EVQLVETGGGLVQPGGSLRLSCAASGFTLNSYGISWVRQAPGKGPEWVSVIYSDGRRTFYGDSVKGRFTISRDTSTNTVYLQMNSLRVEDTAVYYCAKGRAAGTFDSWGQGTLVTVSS
VL: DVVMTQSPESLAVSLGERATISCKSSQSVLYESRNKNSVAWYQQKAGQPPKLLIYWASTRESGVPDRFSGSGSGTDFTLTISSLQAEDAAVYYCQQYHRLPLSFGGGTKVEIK

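Phage display of a naive human antibody library on the peptide gave the parent. These sequences belong to a second round, designed from the earlier measurements on random variants of the parent. Group labels follow the data file (Ctrl: baseline library sampled from a position-specific scoring matrix, with some repeated check sequences; Rand: our label for a block that the file lists under HC and that is probably the random mutants of the ten best first-round binders; GP: Gaussian process model; GPLM: also part of the Gaussian process libraries; HC: hill climbing; Gen: genetic algorithm; Gibbs: Gibbs sampling; a sequence that several methods proposed may carry one label only). Affinity was read by AlphaSeq, a pooled yeast mating assay with surface-displayed partners. The frequency of each diploid, read from paired DNA barcodes, reflects how well the two displayed proteins bind. The ratio of observed to expected reads was calibrated, replicate by replicate, on BCL2-family standards whose Kd was known from biolayer interferometry. The assay was run in six technical replicates.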

Substitutions are numbered in sequence along the VH above, starting at 1 (not Kabat).
Variants here have at most six changes.
Kd is apparent (estimated from mating counts) and averaged on the log scale over replicates with a signal. Smaller is tighter.
A pair that was not seen in any replicate is written "nd"; this usually means weak binding, but a binder can also be missed.
Entries are sorted by rising average, undetected variants last.
In the paper, a design with two or fewer of six values counts as a poor binder.

T28S/S31D/A101E [GPLM_Gen]: 430 pM (6 of 6 replicates; controls 0 of 18).
T28S/R56K/G61A/A101E [GPLM_Gibbs]: 500 pM (6 of 6 replicates; controls 0 of 18).
T28S/G61T/R100M/A101L [GP_HC]: 900 pM (6 of 6 replicates; controls 0 of 18).
T28D/S31E/S63A/R100K [GP_HC]: 980 pM (6 of 6 replicates; controls 0 of 18).
T28E/S53A/R100K/S107A [GP_Gen]: 1.0 nM (4 of 6 replicates; controls 0 of 18).
T28S/S31Q/R56T/G61S [GP_HC]: 1.3 nM (6 of 6 replicates; controls 1 of 18).
S31D/G61I/R100N [GPLM_Gen]: 1.4 nM (6 of 6 replicates; controls 2 of 18).
S31F/G61D/R100Q/A101L [Rand]: 1.6 nM (1 of 6 replicates; controls 0 of 18).
T28D/S63D/R100S/A101E [GP_Gibbs]: 1.6 nM (6 of 6 replicates; controls 0 of 18).
T28D/T58S/A101I [GP_Gen]: 1.9 nM (6 of 6 replicates; controls 0 of 18).
T28D/R100K/A101E [GPLM_Gibbs]: 2.0 nM (6 of 6 replicates; controls 0 of 18).
G61D/S63D/R100Q/A101I [GP_HC]: 2.1 nM (4 of 6 replicates; controls 0 of 18).
T28L/S31E/S63Q/A101T [GP_Gibbs]: 2.2 nM (6 of 6 replicates; controls 0 of 18).
T28E/S31E/R100K/A101N [GP_Gen]: 2.3 nM (4 of 6 replicates; controls 0 of 18).
T28E/G61V/R100N/S107T [GP_Gibbs]: 2.5 nM (6 of 6 replicates; controls 0 of 18).
S31E/T58A/G61T [GP_HC]: 2.7 nM (6 of 6 replicates; controls 0 of 18).
T28S/G61S/R100M/A101Q [GP_Gen]: 4.3 nM (4 of 6 replicates; controls 0 of 18).
V64F/G103A [Ctrl]: 7.9 nM (1 of 6 replicates; controls 1 of 18).
R56K/S63N/R100Q/S107T [GP_Gibbs]: 12 nM (6 of 6 replicates; controls 0 of 18).
T28D/R100W/S107L [GPLM_Gibbs]: 18 nM (6 of 6 replicates; controls 0 of 18).
T28G/F59A/A101N [GP_Gen]: 24 nM (6 of 6 replicates; controls 0 of 18).
S31E/G61A/A101F/A102S [Ctrl]: 26 nM (6 of 6 replicates; controls 0 of 18).
T28H/N30D/G61H/A102K/F105N/D106E [Ctrl]: 80 nM (1 of 6 replicates; controls 0 of 18).
T28S/G61I/S63H/R100Q [GP_Gibbs]: 82 nM (3 of 6 replicates; controls 0 of 18).
G61K/S63D/R100E/A101Q/S107D [Ctrl]: 94 nM (6 of 6 replicates; controls 0 of 18).
T28S/S31E/G61C/G103V/S107L [GP_HC]: 130 nM (1 of 6 replicates; controls 0 of 18).
A102G [Ctrl]: 260 nM (2 of 6 replicates; controls 0 of 18).
R100C/A101I/S107Q [GP_HC]: 480 nM (3 of 6 replicates; controls 1 of 18).
S31E/G103E/S107Q [GP_HC]: 910 nM (1 of 6 replicates; controls 0 of 18).
S53A/R56Q/G103M [Ctrl]: nd (0 of 6 replicates; controls 0 of 18).
S31E/I34P/S53A/A101P/G103A/S107Q [Rand]: nd (0 of 6 replicates; controls 0 of 18).
T28S/S31E/A101T/D106K [GPLM_Gen]: nd (0 of 6 replicates; controls 0 of 18).
G26K/R56M [Ctrl]: nd (0 of 6 replicates; controls 0 of 18).
T28D/G103W/D106K [GP_HC]: nd (0 of 6 replicates; controls 0 of 18).
A101E/S107D [Ctrl]: nd (0 of 6 replicates; controls 0 of 18).
A102K/T104A/F105K [Ctrl]: nd (0 of 6 replicates; controls 0 of 18).
R56L/F59E/A102H [Ctrl]: nd (0 of 6 replicates; controls 0 of 18).
R56M/G61S/G103V [GP_HC]: nd (0 of 6 replicates; controls 0 of 18).
L29N/S31D/G99S [Ctrl]: nd (0 of 6 replicates; controls 0 of 18).
T28R/S35A/F59E/R100K/F105S [Ctrl]: nd (0 of 6 replicates; controls 0 of 18).
N30D/G61K/A101L [GP_HC]: nd (0 of 6 replicates; controls 1 of 18).
T28S/R56K/S63K/A101T [GP_Gen]: nd (0 of 6 replicates; controls 0 of 18).
S31E/G99T/G103V/S107Q [Rand]: nd (0 of 6 replicates; controls 0 of 18).
S31E/G61T/D62P/A101F/D106F [Rand]: nd (0 of 6 replicates; controls 0 of 18).
T28D/Y32Q/G55M/V64H/T104W/D106N [Rand]: nd (0 of 6 replicates; controls 0 of 18).
G26R/N30D/S53A/R56F/G99A/A101S [Ctrl]: nd (0 of 6 replicates; controls 0 of 18).
T28V/G61S/R100E [GPLM_Gen]: nd (0 of 6 replicates; controls 0 of 18).
T28S/S31E/G61V/A101Q [GP_Gen]: nd (0 of 6 replicates; controls 0 of 18).
R56M/D62G/R100S [Ctrl]: nd (0 of 6 replicates; controls 0 of 18).
Y52P/R56Y/G61L/G103F [Ctrl]: nd (0 of 6 replicates; controls 0 of 18).
S31Q/I51T/G61S/T104F [Rand]: nd (0 of 6 replicates; controls 0 of 18).

As a blank, each scFv also met three strains without target: over all heavy chain designs, 1% of these pairings were detected, typically at 120 nM and seldom below 7.0 nM. The control count says in how many pairings with the empty strains this scFv gave a signal.
A sequence measured in both rounds can read differently, since the two assays cover different ranges.
The parent sequence was in this pool as ten entries: three were never detected, three once, and four in most replicates, with averages from 2.2 nM to 240 nM.